The results in this text go back to PubChem BioAssay AID2445 (The Scripps Research Institute Molecular Screening Center, 2010).

Sequences of proteins named here, by UniProt entry; tags and fusion partners are left off.
UniProt P30559, whole entry: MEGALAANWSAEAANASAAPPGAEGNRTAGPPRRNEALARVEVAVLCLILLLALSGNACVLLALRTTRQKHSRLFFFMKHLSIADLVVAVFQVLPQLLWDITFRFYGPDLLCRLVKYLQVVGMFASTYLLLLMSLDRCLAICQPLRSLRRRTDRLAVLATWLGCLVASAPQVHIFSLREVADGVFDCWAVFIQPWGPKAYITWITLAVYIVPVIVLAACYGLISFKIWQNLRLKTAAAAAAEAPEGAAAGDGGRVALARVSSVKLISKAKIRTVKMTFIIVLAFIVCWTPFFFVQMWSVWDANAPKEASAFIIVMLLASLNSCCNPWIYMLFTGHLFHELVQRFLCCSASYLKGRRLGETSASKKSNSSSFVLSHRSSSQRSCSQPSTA

This is a selection; strong and weak results do not stand in their true shares. Calls of active or inactive are those of the source.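 The calls were made as follows: active = activation above that plate's cutoff, the mean activation of tested compounds plus 3 SD (cut at about 6.6% in these data, passing the limit was not always enough); inactive = the rest.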

The target of this test is Oxytocin receptor (Homo sapiens) (UniProt P30559). Nature of the test: enhancers of oxytocin-evoked OXTR calcium signal – fluorescence, CHO-OTR cells, Fluo-8 calcium, primary screen (AID 2445).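 Also: 100% uses oxytocin at 75 nM as the full agonist control.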 Particulars: Fluo-8 calcium fluorescence, potentiator mode, at 3 µM, hits give high values, 0% = oxytocin EC15, 100% = EC100.
Turning to `O=C(NCC1(N2CCCCC2)CCCCC1)c1cccc([N+](=O)[O-])c1`, the activation is inactive: -4.71%. In the case of `CCN1CCC(Nc2ccc(Cl)cc2)CC1`, the activation was inactive: -6.82%. Turning to `N#CC1(Nc2ccccc2)CCN(CCc2ccccc2)CC1`, the activation was inactive: -13.7%. As for `O=C(NCC1(N2CCCCC2)CCCCC1)c1ccc(OC(F)F)cc1`, the figure is inactive: -6.12%; as for `COc1ccc(NC2CCN(C(=O)OC(C)(C)C)CC2)cc1`, inactive: -2.23%; as for `CN1CCN(CCOC(=O)C(O)(c2ccccc2)c2ccccc2)CC1`, inactive: -5.79%. As for `O=C(NCC1(N2CCOCC2)CCCCC1)c1cc(=O)[nH]c2ccccc12`, the figure is inactive: -17.2%; as for `COc1cc(C(=O)NCC2(N3CCCCC3)CCCCC2)ccc1OC(F)F`, inactive: -5.45%.

For the compound `O=C(NCC1(N2CCCCC2)CCCCC1)c1cccc(C(F)(F)F)c1`, the activation is inactive: 0.89%. As for `COc1cc(OC)c(C(=O)NCC2(N(C)C)CCCCC2)cc1OC`, the figure is inactive: -4.88%; as for `O=C(NCC1(N2CCOCC2)CCCCC1)c1cc(F)c(F)cc1Cl`, inactive: -2.48%; as for `COc1ccc(CN(CCCl)CCCl)cc1Cl`, inactive: -4.99%. The value for `CN(C)c1cccc(C(=O)NCC2(N3CCCCC3)CCCCC2)c1` was inactive: -1.1%. On to `CC(C)c1ccc(NC2CCN(C(=O)OC(C)(C)C)CC2)cc1`, for which the activation was inactive: -3.28%. Turning to `CN1CCC(Nc2cccc(F)c2)CC1`, the activation was inactive: -2.38%. On to `O=C(NCC1(N2CCCCC2)CCCCC1)c1cncc(Br)c1`, for which the activation is inactive: -1.65%. For the compound `CSc1ccccc1C(=O)NCC1(N2CCCCC2)CCCCC1`, the activation was inactive: -3.35%.

For the compound `O=C(NCC1(N2CCCCC2)CCCCC1)c1ccc(=O)[nH]c1`, the activation was inactive: 0.91%. Consider `O=C(NCC1(N2CCCCC2)CCCCC1)c1cccs1`, for which the activation was inactive: 1.48%. As for `COc1ccc(C(=O)NCC2(N3CCCCC3)CCCCC2)cc1`, the activation is inactive: -1.07%.

Consider `COc1ccc(C(=O)NCC2(N3CCCCC3)CCCCC2)c(OC)c1OC`, for which the activation was inactive: -1.77%. Regarding `CC(C)(C)OC(=O)N1CCC(N(C(=O)c2ccccc2)c2ccc(F)cc2)CC1`, the activation is inactive: -13.3%. The value for `CCOC(=O)N1CCC(Nc2ccc(OC)cc2)CC1` was inactive: 0.57%; that for `O=C(NCC1(N2CCCCC2)CCCCC1)c1ccc(Cl)s1` was inactive: 1.38%. For `N#CC1(Nc2ccccc2)CCN(Cc2ccccc2)CC1`, the activation was inactive: 4.92%. Consider `O=C(OC1CN2CCC1CC2)C1c2ccccc2Oc2ccccc21` (stereo not drawn), for which the activation was inactive: -2.91%. Regarding `COc1ccc(Cl)cc1C(=O)NCC1(N2CCOCC2)CCCCC1`, the activation is inactive: -2.97%.

As to `O=C(NCC1(N2CCOCC2)CCCCC1)c1cc2ccccc2o1`, the activation is inactive: -9.08%.

Turning to `O=C(NCC1(N2CCCCC2)CCCCC1)c1ccc(Cl)nc1`, the activation is inactive: -1.93%.

Consider `Cc1cc(C)cc(N(C(=O)c2ccccc2)C2CCN(C(=O)OC(C)(C)C)CC2)c1`, for which the activation was inactive: -19.2%. As for `O=C(NCC1(N2CCCCC2)CCCCC1)c1ccc(F)cc1`, the activation is inactive: -2.18%. On to `COc1ccc(NC2CCN(CCc3ccccc3)CC2)c(OC)c1`, for which the activation is inactive: -6.9%. For `CCOc1ccc(C)cc1CN(CCCl)CCCl`, the activation was inactive: -11.4%.

As for `CCOC(=O)N1CCC(Nc2cccc(C)c2)CC1`, the activation is inactive: 1.22%. Regarding `Cc1ccc(OCC(C)C)c(CN(CCCl)CCCl)c1`, the activation was inactive: -5.5%. The value for `Cc1ccc(C(=O)NCC2(N3CCCCC3)CCCCC2)o1` was inactive: -4.76%; that for `Fc1ccccc1NC1CCN(Cc2ccccc2)CC1` was inactive: -1.22%; that for `COc1cc(OC)cc(C(=O)NCC2(N3CCCCC3)CCCCC2)c1` was inactive: -1.96%. As for `O=C(NCC1(N2CCCCC2)CCCCC1)c1ccco1`, the figure is inactive: 2.54%.

Turning to `CN(C)c1ccc(C(=O)NCC2(N3CCCCC3)CCCCC2)cc1`, the activation is inactive: 5.63%. Take `CCN1CCC(Nc2cccc(F)c2)CC1`: the activation was inactive: -7.37%. As for `CCCOc1ccc(C(=O)NCC2(N(C)C)CCCCC2)cc1`, the figure is inactive: -2.85%; as for `CC(C)(C)OC(=O)N1CCC(Nc2ccccc2)CC1`, inactive: 8.07%. As for `O=C(O)C1(Nc2ccccc2)CCN(Cc2ccccc2)CC1`, the figure is inactive: -16%; as for `CCOc1ncccc1C(=O)NCC1(N2CCOCC2)CCCCC1`, inactive: -6.12%; as for `CN1CCC(Nc2ccc(F)c(Cl)c2)CC1`, inactive: -12.4%. Turning to `CCCOc1ccc(C)cc1CN(CCCl)CCCl`, the activation is inactive: -3.81%. Consider `CN1CCC(Nc2ccc(Cl)cc2)CC1`, for which the activation was inactive: -5.58%. Turning to `CCC(CO)(C(=O)OC1CN2CCC1CC2)c1ccccc1` (stereo not drawn), the activation was inactive: -0.93%. As for `COc1cccc(C(=O)N(c2cc(C)cc(C)c2)C2CCN(C(=O)OC(C)(C)C)CC2)c1`, the activation was inactive: -18.8%.

On to `COc1cc(OC)cc(C(=O)NCC2(N3CCOCC3)CCCCC2)c1`, for which the activation was inactive: -5.75%. For the compound `COc1ccc(C(=O)NCC2(N3CCOCC3)CCCCC2)cc1OC`, the activation is inactive: -17.1%. With `O=C(NCC1(N2CCOCC2)CCCCC1)c1cc(Br)ccc1Cl`, the activation is inactive: -2.33%. As for `COc1cc(C(=O)NCC2(N3CCOCC3)CCCCC2)cc(OC)c1C`, the figure is inactive: -2%; as for `CCc1cc(C(=O)NCC2(N3CCCCC3)CCCCC2)sc1C`, inactive: -7.13%. As for `O=C(OC1CN2CCC1CC2)C1c2ccccc2C=Cc2ccccc21` (stereo not drawn), the figure is inactive: 0.12%.

Turning to `N/C(=N\O)c1c(N)no[n+]1[O-]`, the activation is inactive: -12.1%. As for `CCOC(=O)N1CCC(Nc2ccc(C)cc2)CC1`, the figure is inactive: -2.52%; as for `CC(C)(C)OC(=O)N1CCC(N(C(=O)c2ccccc2)c2ccc(Cl)cc2)CC1`, inactive: -19.3%. Take `N#Cc1ccc(C(=O)NCC2(N3CCCCC3)CCCCC2)cc1`: the activation was inactive: -6.65%. For `c1ccc(CN2CCC(Nc3ccccc3)CC2)cc1`, the activation is inactive: -7.48%. Turning to `CCCN1CCC(Nc2cc(OC)cc(OC)c2)CC1`, the activation was inactive: -10.2%. `CN(C)C1(CNC(=O)c2cccc(C#N)c2)CCCCC1`: the activation was inactive: -2.09%.
